Data published in patent publication US9686971B2, “Methods for testing anti-thrombotic agents” (The Trustees of Columbia University in the City of New York, priority 2006, dated 2017).

System: human platelets
Test: Tail bleeding assay, human platelet-induced hemostasis in homozygous VWF^1326R>H mice
Type: in vivo, mouse
Settings: PLAVIX 50 mg/kg oral day before and 2 h prior, ReoPro 0.25 mg/kg iv bolus then 0.125 μg/kg/min, 5 min after human platelets
Method: This assay provides an indirect measure of the ability of platelets and VWF to support hemostasis by interacting with the injured vessel wall. It also indirectly determines the function of multiple receptors and ligands on platelets that are required to form a hemostatic plug. […] It is performed by immersing the severed tip (10 mm) of the animal's tail in isotonic saline at 37° C. and monitoring the length of time required for bleeding to cease. Homozygous mutant mice will be infused with an equal volume of either saline or purified human platelets. Platelet specific antibodies or drugs will be administered as described above and their ability to prolong bleeding time evaluated. All experiments will be stopped at 10 min by cauterizing the tail (51).
Tail cuts were performed 5 min after completion of the infusion of platelets. PLAVIX and ReoPro® were obtained from the research pharmacy at CUMC. For studies involving PLAVIX, animals received a 50 mg/kg oral dose of the drug the day before and 2 h prior to the administration of human platelets.

SMILES: COC(=O)[C@H](c1ccccc1Cl)N1CCc2sccc2C1 [clopidogrel]
- human platelet-induced hemostatic clot / plug formation (words): completely disrupted
- human platelet-induced hemostatic clot / plug formation (words) (listed as Clopidogrel): unable to produce a hemostatic clot
